Molecular target: D2LR (Homo sapiens, UniProt P14416)
Test: [3H]rotigotine saturation binding, cell membranes
Conditions: tested as the radiolabelled form

Chains of the proteins cited; added tags and fusions are not shown.
UniProt P14416, whole entry: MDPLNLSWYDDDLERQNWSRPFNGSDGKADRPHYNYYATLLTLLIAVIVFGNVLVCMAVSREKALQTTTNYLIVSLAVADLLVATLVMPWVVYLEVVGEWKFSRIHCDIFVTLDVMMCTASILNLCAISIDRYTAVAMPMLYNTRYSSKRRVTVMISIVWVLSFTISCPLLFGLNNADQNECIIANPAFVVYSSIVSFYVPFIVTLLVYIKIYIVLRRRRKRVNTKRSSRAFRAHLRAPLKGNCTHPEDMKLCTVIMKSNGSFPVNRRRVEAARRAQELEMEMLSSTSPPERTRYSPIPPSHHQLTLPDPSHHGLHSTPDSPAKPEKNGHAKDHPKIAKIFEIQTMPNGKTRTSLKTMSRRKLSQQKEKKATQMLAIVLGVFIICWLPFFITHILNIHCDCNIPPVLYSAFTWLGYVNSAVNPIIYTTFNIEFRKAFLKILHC

Compound: CCCN(CCc1cccs1)[C@H]1CCc2c(O)cccc2C1 [rotigotine]
- Bmax (+ 10 μM D2 PAM + 0.1 mM GppNHp): 1.45 ± 0.21 pmol/mg
- Bmax (+ 10 μM D2 PAM + 100 mM NaCl): 1.71 ± 0.27 pmol/mg
- Bmax (+ 10μM D2 PAM): 1.66 ± 0.23 pmol/mg
- Bmax (+ 0.1mM GppNHp): 1.37 ± 0.19 pmol/mg
- Bmax (Control): 1.00 ± 0.18 pmol/mg

— article PMC12186844 (ACS Chemical Neuroscience, 2025)
